2 compounds from patent US12630563B2, “Macrocyclic RIP2-kinase inhibitors” (Oncodesign S.A., priority 2020, dated 2026) can be followed below.

The chains behind the UniProt entries cited, without tags or fusion partners.
UniProt Q12809, whole entry: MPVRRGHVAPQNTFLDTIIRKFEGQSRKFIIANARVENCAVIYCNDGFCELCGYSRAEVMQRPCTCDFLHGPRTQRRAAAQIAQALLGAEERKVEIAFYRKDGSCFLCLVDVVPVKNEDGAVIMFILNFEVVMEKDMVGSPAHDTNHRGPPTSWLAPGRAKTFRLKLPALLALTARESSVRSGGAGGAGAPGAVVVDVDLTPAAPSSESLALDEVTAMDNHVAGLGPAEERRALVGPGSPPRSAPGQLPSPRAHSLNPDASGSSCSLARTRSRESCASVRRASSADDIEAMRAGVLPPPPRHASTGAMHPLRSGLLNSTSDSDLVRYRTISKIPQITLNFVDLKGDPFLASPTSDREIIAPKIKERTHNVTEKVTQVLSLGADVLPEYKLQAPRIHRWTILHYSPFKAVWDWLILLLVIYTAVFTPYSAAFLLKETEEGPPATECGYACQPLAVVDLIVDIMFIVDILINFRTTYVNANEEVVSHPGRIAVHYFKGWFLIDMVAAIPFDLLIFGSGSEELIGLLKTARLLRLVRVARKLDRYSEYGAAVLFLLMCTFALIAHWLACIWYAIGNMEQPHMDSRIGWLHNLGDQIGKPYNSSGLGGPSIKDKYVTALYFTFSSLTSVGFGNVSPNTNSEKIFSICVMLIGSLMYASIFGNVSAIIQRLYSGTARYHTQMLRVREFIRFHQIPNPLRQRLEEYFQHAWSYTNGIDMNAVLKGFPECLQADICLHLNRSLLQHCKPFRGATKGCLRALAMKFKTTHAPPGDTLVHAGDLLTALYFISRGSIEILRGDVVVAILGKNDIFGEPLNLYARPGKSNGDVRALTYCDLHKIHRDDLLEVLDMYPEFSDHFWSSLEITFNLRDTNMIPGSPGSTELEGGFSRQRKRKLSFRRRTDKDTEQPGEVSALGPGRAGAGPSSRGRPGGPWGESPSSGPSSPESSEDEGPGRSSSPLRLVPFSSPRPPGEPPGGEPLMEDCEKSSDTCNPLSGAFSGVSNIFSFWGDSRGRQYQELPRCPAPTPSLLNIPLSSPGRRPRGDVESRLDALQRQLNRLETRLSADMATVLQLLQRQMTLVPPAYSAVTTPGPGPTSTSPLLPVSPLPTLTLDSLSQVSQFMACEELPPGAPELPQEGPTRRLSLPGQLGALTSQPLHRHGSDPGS

Data set [1] in a line: Human protein binding free fraction (Assay A, RED plate equilibrium dialysis). How it is done: Human protein binding protocol: Compound was added to plasma or brain homogenate and incubated at 2 μM at 37° C. in the RED plate (Thermo n° 96009, cut-off 8000 Da) against PBS buffer. After 4 h, aliquots of plasma and buffer side were transferred to a well containing acetonitrile with an internal standard. After protein precipitation, samples were centrifuged and supernatant was injected in LC/MS/MS. Standards were prepared in the same matrix and treated as samples.
A fraction unbound (fuplasma) was determined for each plasma sample as follows: […]

Data set [2] is described as follows: Human Clint, microsomal metabolic stability (Assay B). The following applies: pooled liver microsomes 0.5 mg/mL, 0.5 μM compound, NADPH. Here is the method:
Human Clint protocol: Pooled liver microsomes (Sekisui Xenotech) were diluted at 0.5 mg/mL in 50 mM phosphate buffer, pH 7.4 then pre-incubated with 0.5 μM […] for 7 min at 37° C. The reactions were initiated by adding prewarmed cofactor (0.44 mM NADPH). Aliquots of samples were taken at 0, 5, 10, 20 and 45 min and the reactions stopped by addition of cold acetonitrile containing an internal standard. Samples were centrifuged at 3000 g for 10 min at 4° C. and then supernatants were analyzed by LC/MS/MS for the amount of parent compound remaining.

The target in data set [3] is hERG potassium channel (Homo sapiens, UniProt Q12809). The data set is described as follows: hERG q-patch assay (Assay C, Sophion Qube automated electrophysiology). The conditions noted are these: read-out: Assay C: hERG q-patch inhibition IC50. How it is done:
hERG q-patch assay protocol: The potential for test compound to inhibit the hERG potassium channel was determined using the Charles River ChanTest® hERG-HEK stably transfected cell line on the Sophion Qube automated electrophysiology platform. The assay was performed at room temperature and recordings of the hERG tail current from a population of cells were made using multi-hole QChips.

Take `Clc1cc2cc(c1)-c1cnn3ccc(nc13)NC[C@@H]1CCCN1CCO2`: the “Assay A: Human protein binding free fraction (F %)” value in data set [1] is “+ (+ indicates F % below 0.1%)”. For the same compound, in data set [2], the “Assay B: Human Clint (hCl)” value is on record as “+ (+ indicates hCl above 18 ug/min/mg prot)”. Further, the IC50 in data set [3] was in the range of 1 to 10 µM.
For the compound `Fc1cc2cc(c1)-c1cnn3ccc(nc13)NC[C@@H]1CCCN1CCCO2`, the “Assay A: Human protein binding free fraction (F %)” value in data set [1] is recorded as “+ (+ indicates F % below 0.1%)”. Further, in data set [2], the “Assay B: Human Clint (hCl)” value is listed as “+ (+ indicates hCl above 18 ug/min/mg prot)”. The IC50 in data set [3] is less than 11 µM.
